This passage reports activity, negative = inhibition results from PubChem BioAssay AID504842 (National Center for Advancing Translational Sciences (NCATS), 2011).

Where “and” joins values, the source holds several entries; their conditions need not be identical. Equal entries are not always repeated. Only a part is listed here, and it is no random draw. Calls of active or inactive are those of the source. Calls come from the whole dose curve; as a rule, active = well fitted inhibition curve with a large enough effect; inconclusive = small, poorly fitted or top-dose-only effect; inactive = flat fitted curve, though single readings scatter.
% is set by controls: 0 for no effect and ±100 for the full control effect.

The subject of this assay is Chaperonin Mm-Cpn (Methanococcus maripaludis). The assay can be described thus: Inhibitors of TCP-1 ring complex (TRiC) of Methanococcus maripaludis (MmCpn): qHTS. Note: nearly all actives have a fitted effect of over 80% in size. Particulars: purified Mm-Cpn ATPase, ADP Transcreener TR-FRET; at 76.9 µM (top of the series). An excerpt:
The eukaryotic chaperonin TRiC (for TCP-1 ring complex) is an essential and conserved chaperone required for the folding and activation of 10-15% of the proteins encoded by the human genome. […] The TRiC complex consist of two stacked 7-9 membered rings, each containing a central cavity. Substrates are folded within the cavity in an ATP-dependent manner. TRiC is a complex of eight different, essential proteins. As each of the genes encoding the eight subunits is essential for cell viability and no protocol has been developed to over-express this enzyme to high levels. That is why several groups studying the TRiC chaperonin have turned to the archaeal homolog of TRiC, Methanococcus maripaludis (Mm-CPN), and have used this enzyme as a model system for the study of the type II chaperonin family. Small molecule inhibitors of the Mm-CPN enzyme would be extremely useful to study the mechanism of chaperonin activity. Importantly, TRiC and Mm-CPN both require ATP hydrolysis for function. Furthermore, the ATP binding sites are highly conserved among these type II chaperonins. This provides us with an easy, well tested and straightforward assay to identify inhibitors of chaperonin activity. The Mm-CPN assay was developed in 1536-well plate format using the HTRF Transcreener ADP assay kit (Cisbio, Bedford, MA). This assay applied the time resolved fluorescence resonance energy transfer (TR-FRET) principle. ATP in the presence of Mm-CPN is converted to ADP + Pi. An antibody labeled with Eu3+-Cryptate specific and bound to ADP labeled with […] (d2) competes with the unlabeled ADP generated by Mm-CPN. The resulting TR-FRET signal is inversely proportional to the concentration of ADP in the sample. In this assay a reduction in TR-FRET signal is observed with ATP turnover. NIH Chemical Genomics Center [NCGC] NIH Molecular Libraries Probe Centers Network [MLPCN] MLPCN Grant: DA030554-01A1 Assay Submitter (PI): Judith Frydman, Stanford University
Purified Mm-CPN was supplied by the laboratory of Dr. Judith Frydman. Protein samples were stored at -80C as single use aliquots. Protein was thawed in ambient temperature water bath and placed on ice once thawed. Buffer was prepared fresh day of screen. The buffer composition below was used to prepare the working solution of the Mm-CPN protein and ATP substrate. The buffer is comprised of 30 mM TRIS pH 7.4, 100mM KCl, 5mM MgCl2, and 1mM DTT. A final concentration of 25nM Mm-CPN and 10uM ATP per well were used in the screen. Instructions according to the manufacturer were followed for the ADP Transcreener kit. Used 1536 well Greiner white, medium binding (MB), solid bottom plates. Plates were read on the PerkinElmer EnVision plate reader using Excitation = 320 nm and Emission = […], 665 nm. Protocol- 1.Dispense 1.5ul per well of working [Mm-CPN] = 50nM (or 75 ng / well) 2.Spin plate at 1000 rpm for 30 seconds 3.23nl of compound transferred per well 4.Incubate at 37degC for 10 minutes 5.Dispense 1.5ul per well of working [ATP] = 20uM 6.Incubate at 37degC for 30 minutes 7.Dispense 3ul per well of Anti-ADP Cryptate / ADP-d2 mix (prepared as instructed by Cisbio) 8.Incubate at ambient for 30 minutes 9.Read using EnVision
A general note: qHTS replaces the single test concentration by a dilution series.
With `O=[N+]([O-])c1ccc(Nc2ccc(Oc3ccc([N+](=O)[O-])cc3[N+](=O)[O-])cc2)c([N+](=O)[O-])c1`, the activity, negative = inhibition was inactive: 0.652%. To `CCOC(=O)Nc1ccc([As](=O)(O)O)c(O)c1` belongs inactive: 0.665%; to `Cc1cc(SC(NC(=O)c2ccccc2)C(Cl)(Cl)Cl)nc(C(C)C)n1` (stereo not given), inactive: -2.23%. `CCCCOc1ccc(C(=O)NCC2(N3CCCCC3)CCCCC2)cc1OC`: the activity, negative = inhibition is inactive: 1.96%. Regarding `ClCCSc1nnc(-c2cccnc2)o1`, the activity, negative = inhibition was inactive: 1.97%. To `CC(C)c1ccc(OP(=O)(Nc2ccccn2)Oc2ccccc2F)cc1` (stereo not given) belongs inactive: 0.231%; to `O=[N+]([O-])c1cc([N+](=O)[O-])c(-c2ccn[nH]2)s1`, inactive: -5.99%. With `CCN(CC)C(=S)SC(NC=O)C(Cl)(Cl)Cl` (stereo not given) the figure was inactive: -2.87%; with `CC(C)NC(=O)NP(=O)(Oc1ccccc1)Oc1ccccc1`, inactive: 0.152%.

Consider `COc1cc(C(=O)NCC2(N3CCOCC3)CCCCC2)ccc1OCC(C)C`, for which the activity, negative = inhibition was inactive: -0.216%. As for `C[As](=O)(O)c1cccc(C(=O)O)c1`, the activity, negative = inhibition is inactive: -23.1%. With `O=[As](O)(c1ccc(O)cc1)c1ccccc1O` the figure was inactive: 1.02%. In the case of `Cc1ccc(OP(=O)(Nc2ccc([N+](=O)[O-])cn2)Oc2ccc(C)cc2)cc1`, the activity, negative = inhibition is inactive: -1.68%. With `Cc1ccc2nc3c(c(C)c2c1)CC(C(Cl)Cl)S3` (stereo not given) the figure was inactive: -5.74%. For the compound `COc1ccc(N/C(=N/P(=O)(N2CCOCC2)N2CCOCC2)N2CCOCC2)cc1`, the activity, negative = inhibition is inactive: 2.54%. For `Cc1c2c(nc3ccccc13)SC(C(Cl)Cl)C2` (stereo not given), the activity, negative = inhibition is inactive: -1.49%. To `Cc1cc(=O)[nH]c(N[N+](=O)[O-])n1` belongs inactive: 0.912%; to `O=C(OC1CN2CCC1CC2)C12CC3CC(CC(C3)C1)C2` (stereo not given), inactive: -3.49%; to `COc1cc(I)ccc1[As](=O)(O)O`, inactive: 3.59%. For the compound `COc1ccc2nc(NP(=O)(c3ccccc3)c3ccccc3)sc2c1`, the activity, negative = inhibition is inactive: -6.09%. With `Cc1c2non([O-])c-2c(C)[n+](=O)[n+]1[O-]` the figure was inactive: 2.18%.

Turning to `O=C(NC(Sc1ccncn1)C(Cl)(Cl)Cl)c1ccccc1` (stereo not given), the activity, negative = inhibition is inactive: 0.909%. Take `Oc1ccccc1CNc1ccccn1`: the activity, negative = inhibition is inactive: 1.01%. Turning to `CC(C)CC(=O)NC(Sc1ccc(Cl)cc1)C(Cl)(Cl)Cl` (stereo not given), the activity, negative = inhibition is inactive: 1.45%. For `Nc1cc(N)c2nonc2c1[N+](=O)[O-]`, the activity, negative = inhibition was inactive: 2.47%. For the compound `Cc1ccc(N/C(=N/P(=O)(N2CCOCC2)N2CCOCC2)N2CCOCC2)cc1`, the activity, negative = inhibition is inactive: 0.44%. To `CN(C(=O)Cc1ccc(Cl)c(Cl)c1)[C@H]1CCCC[C@H]1N1CCCC1` belongs inactive: -0.545%; to `NC(=O)c1cc([N+](=O)[O-])cc([N+](=O)[O-])c1N`, inactive: -0.0061%. To `Clc1ccc(Cl)c(NC2=NCC(CBr)S2)c1` (stereo not given) belongs inactive: -4.09%; to `CN1CCCC(OC(=O)C(c2ccccc2)c2ccccc2)C1` (stereo not given), inactive: 1.75%. Take `Cc1ccc(OP(=O)(Nc2nccs2)Oc2ccc(C)cc2)cc1`: the activity, negative = inhibition is inactive: 2.31%.

As to `COc1ccccc1OP(=O)(Nc1ccc(C)cn1)Oc1ccccc1OC`, the activity, negative = inhibition is inactive: 0.361%. With `O=[N+]([O-])c1cc([N+](=O)[O-])c(CCN2CCOCC2)c([N+](=O)[O-])c1` the figure was inactive: -2.91%. Regarding `Nc1cccc2ccc([As](=O)(O)O)cc12`, the activity, negative = inhibition is inactive: -5.47%. Regarding `CCN(N=Nc1nonc1N)c1nonc1N`, the activity, negative = inhibition was inactive: -0.565%.

Consider `O=P(Nc1nc2ccc(Cl)cc2s1)(c1ccccc1)c1ccccc1`, for which the activity, negative = inhibition is inactive: -2.58%. With `O=C(O)c1ccccc1[As](=O)(O)O` the figure was inactive: 1.04%; with `CC(=O)Nc1ccc([As](=O)(O)O)cc1`, inactive: -11.7%; with `Cc1ccc(NP(=O)(Oc2ccccc2F)Oc2ccccc2F)nc1`, inactive: -0.306%.

For the compound `CCOP(=O)(Nc1ccccc1)OCC`, the activity, negative = inhibition is inactive: -0.384% and inactive: -2.16%. `Cc1cc(SC(NC(=O)c2ccc(F)cc2)C(Cl)(Cl)Cl)ncn1` (stereo not given): the activity, negative = inhibition is inactive: 0.21%. Consider `O=[N+]([O-])c1ncn(CCn2ncnc2[N+](=O)[O-])n1`, for which the activity, negative = inhibition was inactive: 4.53%. As to `CC(C)(C)C(=O)NC(Sc1ccncn1)C(Cl)(Cl)Cl` (stereo not given), the activity, negative = inhibition is inactive: 0.179%.

On to `O=C(O)CNc1ccc([As](=O)(O)O)cc1`, for which the activity, negative = inhibition is inactive: 1.64%. Consider `O=[N+]([O-])c1cccc(NC2=NCC(CBr)S2)c1` (stereo not given), for which the activity, negative = inhibition is inactive: 2.46%. For `O=C(Nc1cc([As](=O)(O)O)ccc1O)c1ccccc1`, the activity, negative = inhibition is inactive: -0.157%. To `C[N+]1=C2C=CC=CC=C2SC12C([N+](=O)[O-])=CC([N+](=O)[O-])=C[C-]2[N+](=O)[O-]` (stereo not given) belongs inactive: -1.43%; to `Nc1ccc([As](=O)(O)c2ccc(N)cc2)cc1`, inactive: -3.9%.

As for `CC1CCN(C(=O)Oc2c(Cl)cc(Cl)c3cccnc23)CC1`, the activity, negative = inhibition is inactive: -0.857%.

`CN(C)C(=O)OCCc1n(C)cc[n+]1C`: the activity, negative = inhibition is inactive: -1.57%.
